Experiment: in vivo
Details: mouse, ip

O=C1NC(=O)C(c2ccccc2)(c2ccccc2)N1 [diphenylhydantoin, reference compound]
LD50: 200 mg/kg
